Three molecules from PubChem BioAssay AID1259376 (The Scripps Research Institute Molecular Screening Center, 2018) can be followed below.

The inhibition is the change of the read-out against control, counted positive when it falls.

Only a part is listed here, and it is no random draw. Activity calls are given as the source filed them.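 Rule for the calls: active = inhibition above a cutoff derived from the DMSO control wells (cut at about 30% in these data); inactive = the rest.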

The nature of this assay: AlphaScreen optical interference compounds, counter-screen for MITF inhibitor project, biochemical, triplicate (AID 1259376). The conditions noted are these: LysRS AlphaScreen counterscreen, signal interference, at 2.6 µM, hits give high values. In general terms: In Alpha technology, singlet oxygen from a donor bead excites a nearby acceptor bead.
For `CN(C)CCOC(=O)C(O)(c1ccccc1)C1CCCCC1` (stereo not drawn), the inhibition is inactive: -4.77%.
The value for `CCOP(C)(=S)SCN(CC(=O)O)C(=O)OC` (stereo not drawn) was inactive: 7.49%.
For `O=[N+]([O-])c1cc2[nH]c3cc([N+](=O)[O-])c([N+](=O)[O-])cc3c2cc1[N+](=O)[O-]`, the inhibition is inactive: -13.1%.
